Values of other authors in patent publication US9724355B2, “Fulvestrant compositions and methods of use” (SHIMODA BIOTECH (PTY) LTD, priority 2010, dated 2017).

Settings: cited from earlier work

Hydroxypropyl gamma-cyclodextrin
Water Solubility (25° C.): >750 mg/mL
